pIC50: −log10 of the molar value.
Molecular target: biotinylated truncated STAT6 (123-632)-avi (Homo sapiens, UniProt P42226)
Test: Homogenous Time-Resolved Fluorescence (HTRF) binding assay
Conditions: read-out: STAT6 HTRF: Average IC50; 0.15 nM biotinylated truncated STAT6 (123-632)-avi, 20 nM fluorescein-labeled probe, 30 minutes room temperature
Description: Example 1. Homogenous Time-Resolved Fluorescence (HTRF) Binding Assay
HTRF binding assays were performed using 0.15 nM biotinylated truncated STAT6 (123-632)-avi purified from E. coli, 1× Streptavidin-terbium (CisBio) prepared by mixing SA-Tb in PPI detection buffer (CisBio), 20 nM proprietary fluorescein-labeled probe, and test compounds in assay buffer consisting of 50 mM HEPES-Na pH 7.5, 100 mM NaCl, 1 mM EDTA, 2 mM DTT, 0.1% Tween-20 with a final volume of 20 uL. Compound stocks were dissolved at 10 mM in 100% DMSO and 11 point titration with 3 fold serial dilution was performed in white, opaque 384 well microplates. Reaction plates were incubated at room temperature for 30 minutes. Plates were centrifuged at low rpm for 5 mins, and the ratio of fluorescence intensities were measured at emission wavelengths for fluorescein acceptor (520 nm) and terbium donor (495 nm) on Envision Plate reader. % Inhibition was calculated from the 520/495 ratio generated by using proprietary positive control compound for 100% inhibition and DMSO only reactions for 0% inhibition. Data was processed and dose response curves were generated using GraphPad Prism to determine the concentration required for inhibiting 50% of the HTRF signal (IC50).

The chains behind the UniProt entries cited, without tags or fusion partners. Residues count along the entry.
UniProt P42226, 123-632 limits assumed: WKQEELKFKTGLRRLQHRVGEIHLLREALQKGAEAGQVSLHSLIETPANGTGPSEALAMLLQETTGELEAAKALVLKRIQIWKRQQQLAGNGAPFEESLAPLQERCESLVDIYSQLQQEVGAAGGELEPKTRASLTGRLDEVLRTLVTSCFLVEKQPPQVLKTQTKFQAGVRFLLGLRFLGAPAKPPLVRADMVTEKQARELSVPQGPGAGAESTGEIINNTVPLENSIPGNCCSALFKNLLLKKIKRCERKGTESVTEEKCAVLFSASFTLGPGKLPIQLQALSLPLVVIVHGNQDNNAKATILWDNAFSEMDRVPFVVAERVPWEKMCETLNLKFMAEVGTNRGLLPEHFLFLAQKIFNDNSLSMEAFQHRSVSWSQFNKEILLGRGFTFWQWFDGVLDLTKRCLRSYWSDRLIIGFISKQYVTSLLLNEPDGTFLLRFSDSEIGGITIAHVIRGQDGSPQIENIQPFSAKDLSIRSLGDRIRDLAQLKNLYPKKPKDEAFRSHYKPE

CCc1nc(C)ccc1-c1cc(C(=O)N2CCN(C3CC3)CC2)cc2c(F)c(C3CCCN(C(=O)CCn4ccnn4)C3)n(CC3CC3)c12 (single isomer, unassigned)
pIC50: 5.00 to 6.00

CCc1nc(C)ccc1-c1cc(C(=O)N2Cc3cnn(C)c3C2)cc2c(F)c(C3CCCN(C(=O)CCc4nccs4)C3)n(CC3CC3)c12 (single isomer, unassigned)
pIC50: 5.00 to 6.00
